Data taken from ChEMBL document CHEMBL3045655, “Use of structure-based virtual screening in the investigation of novel human sialidase inhibitors” (Med Chem Res, 2010).

Molecular target: T1, Sialidase-4 (Homo sapiens, UniProt Q8WWR8)
T1 sequence (Q8WWR8 whole entry): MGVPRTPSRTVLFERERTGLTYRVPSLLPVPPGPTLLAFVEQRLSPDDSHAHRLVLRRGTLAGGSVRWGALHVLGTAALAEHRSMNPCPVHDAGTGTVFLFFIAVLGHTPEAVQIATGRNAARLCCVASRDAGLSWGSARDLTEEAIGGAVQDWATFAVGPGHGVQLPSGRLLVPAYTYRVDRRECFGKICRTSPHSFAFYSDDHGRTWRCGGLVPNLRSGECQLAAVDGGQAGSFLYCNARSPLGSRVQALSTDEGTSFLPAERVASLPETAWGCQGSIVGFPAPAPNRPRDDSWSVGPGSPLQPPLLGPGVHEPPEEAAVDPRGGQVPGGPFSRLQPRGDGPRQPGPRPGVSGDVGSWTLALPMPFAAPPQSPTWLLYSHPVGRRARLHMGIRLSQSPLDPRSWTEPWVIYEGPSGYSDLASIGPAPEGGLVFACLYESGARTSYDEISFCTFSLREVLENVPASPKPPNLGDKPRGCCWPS
Assay: Inhibition of Homo sapiens (human) NEU4 expressed in HEK293 cells using 4MU-NeuAc as substrate after 10 to 30 min by fluorometric analysis
Format: cell-based

An IC50 of 70 µM was found for `CC(=O)N[C@H]1[C@H]([C@@H](O)[C@@H](O)CO)OC(C(=O)O)=C[C@@H]1O` in this work.
